In publication PMC3282187 (Neuron, 2012):

Tested on: neurons of the locus coeruleus (LC); mu opioid receptor-coupled K^+ channels
Assay type: cell-based, rat

SMILES: C=CCN1CC[C@]23c4c5ccc(O)c4O[C@H]2C(=O)CC[C@@]3(O)[C@H]1C5 [naloxone]
- effect on light-evoked outward current: blocked
